From patent US8962819B2, “Anti-C5 alpha antibodies” (Adienne S.A., priority 2002, dated 2015)

System: binding of the TS-A12/22 antibody to C5
Assay: Competitive ELISA on solid-phase C5 after pre-incubation of TS-A12/22 with peptide
Parameters: species or system human
Details: scFv 1 μg/ml
Experimental: Mixtures of scFv TSA-12/22 (1 μg/ml) containing 200, 400 and 800 ng of P5A-18 peptide, with sequence KDMQLGRLHMKTLLPVSK [SEQ ID NO:15], comprising the C5 convertase cleavage site, or 800 ng of unrelated peptide CS5, derived from fibronectin ([…] SEQ ID No. 16 of sequence listing) or 3.5 μg of C5a fragment or saline solution (control) were incubated as described in example 8. Binding of the antibody, pre-incubated in different conditions, was assessed by immuno-enzymatic assay using C5 on solid phase. Inhibition by the P5A-18 peptide of the binding between scFv of the invention and C5 is dose-dependent, ranging between 45% to 90% for peptide concentrations of 200 and 800 ng, respectively. These values correspond to a Ki of 1 μM for the P5A-18 peptide. NO inhibition is observed using C5A or the unrelated peptide.
In order to verify this hypothesis, a peptide of 18 amino acids was synthesised, with sequence: KDMQLGR↓LHMKTLLPVSK (P5A-18 also termed C5cs comprising SEQ ID NO:15). This peptide corresponds to region 727-744 of the mature protein and comprises the cleavage site of C5 convertase (indicated by the arrow) between […] according to SwissProt numbering for human C5 (SEQ ID P01031). The peptide was used in a competitive ELISA assay on the C5 protein on solid phase. […]

With “KDMQLGRLHMKTLLPVSK [P5A-18, 18 amino acid peptide, region 727-744 of human C5, comprising the C5 convertase cleavage site]” the “inhibition of binding of TS-A12/22 to C5” value (200 ng peptide (/200 μl)) was 45% and the “inhibition of binding of TS-A12/22 to C5” value (800 ng peptide (/200 μl)) was 90%.
